Experimental findings from PubChem BioAssay AID588334 (Broad Institute, 2011) are described below.

Molecules are shown by their SMILES. Only a part is listed here, and it is no random draw. Activity calls are given as the source filed them.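 How the source made its calls: active means mean activation of at least 80% with every replicate also reaching 80%; inconclusive means mean reaches 80% but some replicate falls short; inactive means the rest.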

The nature of this experiment: activators of MITF-driven TRPM1 promoter reporter, primary screen, cell-based, SK-MEL-5, luciferase, single point (AID 588334).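 Further: 0% = neutral control wells and 100% = parthenolide positive control wells.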 As to conditions: SK-MEL-5 TRPM1-promoter luciferase, 24 h; at 12.5 µM; stronger effect = higher value; % of positive control, neutral wells = 0.
As for `O=C(NCC1(N2CCCCC2)CCCCC1)c1cccc(C(F)(F)F)c1`, the activation was inactive: 2.67%.

On to `COc1ccc(NC2CCN(C(=O)OC(C)(C)C)CC2)cc1`, for which the activation was inactive: -5.19%.

Consider `CC(C)c1ccc(C(=O)NCC2(N3CCOCC3)CCCCC2)cc1`, for which the activation was inactive: 35.5%.

As to `CN1CCN(CCOC(=O)C(O)(c2ccccc2)c2ccccc2)CC1`, the activation is inactive: -5.2%.

With `O=C(NCC1(N2CCOCC2)CCCCC1)c1cc(=O)[nH]c2ccccc12`, the activation was inactive: -4.53%.

As to `COc1cc(C(=O)NCC2(N3CCCCC3)CCCCC2)ccc1OC(F)F`, the activation is inactive: 7.53%.

Turning to `O=C(NCC1(N2CCCCC2)CCCCC1)c1ccc(OC(F)F)cc1`, the activation was inactive: 19.1%.

On to `O=C(NCC1(N2CCCCC2)CCCCC1)c1cccc([N+](=O)[O-])c1`, for which the activation was inactive: -6.18%.

In the case of `CSc1ccc(C(=O)NCC2(N3CCOCC3)CCCCC2)cc1`, the activation was inactive: 12.2%.

In the case of `N#CC1(Nc2ccccc2)CCN(CCc2ccccc2)CC1`, the activation was inactive: 0.155%.

On to `O=C(NCC1(N2CCCCC2)CCCCC1)c1cncc(Br)c1`, for which the activation is inactive: 5.03%.

As for `CN1CCC(Nc2cccc(F)c2)CC1`, the activation was inactive: 6.62%.

On to `CCCOc1ccc(C(=O)NCC2(N(C)C)CCCCC2)cc1OC`, for which the activation is inactive: -8.59%.

On to `CN(C)c1cccc(C(=O)NCC2(N3CCCCC3)CCCCC2)c1`, for which the activation was inactive: 0.897%.

Turning to `COc1ccc(CN(CCCl)CCCl)cc1Cl`, the activation is inactive: -8.85%.

Take `CC(C)c1ccc(NC2CCN(C(=O)OC(C)(C)C)CC2)cc1`: the activation was inactive: 50.1%.

In the case of `O=C(NCC1(N2CCOCC2)CCCCC1)c1cc(F)c(F)cc1Cl`, the activation was inactive: 1.35%.

As to `COc1cc(OC)c(C(=O)NCC2(N(C)C)CCCCC2)cc1OC`, the activation was inactive: -4.97%.

On to `O=C(NCC1(N2CCOCC2)CCCCC1)c1cc2ccccc2o1`, for which the activation is inactive: -7.81%.

In the case of `Cc1cc(C)cc(N(C(=O)c2ccccc2)C2CCN(C(=O)OC(C)(C)C)CC2)c1`, the activation was inactive: -21%.

On to `O=C(NCC1(N2CCCCC2)CCCCC1)c1ccc(Cl)nc1`, for which the activation is inactive: 12.5%.

As to `CCOC(=O)N1CCC(Nc2ccc(OC)cc2)CC1`, the activation is inactive: -8.41%.

As for `COc1ccc(Cl)cc1C(=O)NCC1(N2CCOCC2)CCCCC1`, the activation is inactive: -4.87%.

Regarding `O=C(OC1CN2CCC1CC2)C1c2ccccc2Oc2ccccc21` (configuration not stated), the activation is inactive: 2.77%.

`O=C(NCC1(N2CCCCC2)CCCCC1)c1ccc(Cl)s1`: the activation was inactive: 8.68%.

With `N#CC1(Nc2ccccc2)CCN(Cc2ccccc2)CC1`, the activation is inactive: 0.827%.

As to `O=C(NCC1(N2CCCCC2)CCCCC1)c1cccs1`, the activation is inactive: 12.7%.

`O=C(NCC1(N2CCCCC2)CCCCC1)c1ccc(=O)[nH]c1`: the activation is inactive: 12.6%.

Consider `COc1ccc(C(=O)NCC2(N3CCCCC3)CCCCC2)c(OC)c1OC`, for which the activation is inactive: -12.3%.

On to `CC(C)(C)OC(=O)N1CCC(N(C(=O)c2ccccc2)c2ccc(F)cc2)CC1`, for which the activation was inactive: -6.79%.

Consider `COc1ccc(C(=O)NCC2(N3CCCCC3)CCCCC2)cc1`, for which the activation was inactive: 14.1%.

Turning to `Cc1cccc(NC2(C#N)CCN(Cc3ccccc3)CC2)c1`, the activation is inactive: -2.35%.

Regarding `CSc1ccccc1C(=O)NCC1(N2CCCCC2)CCCCC1`, the activation was inactive: 1.88%.

For `COc1cc(C(=O)NCC2(N(C)C)CCCCC2)ccc1OC(F)F`, the activation is inactive: 0.884%.

As to `CCOc1ccc(C)cc1CN(CCCl)CCCl`, the activation was inactive: -11.1%.

`O=C1CCN(Cc2ccccc2)CC1`: the activation was inactive: 4.11%.

In the case of `CCOC(=O)N1CCC(Nc2ccc(F)cc2)CC1`, the activation was inactive: -0.507%.

For `COc1ccc(NC2CCN(CCc3ccccc3)CC2)c(OC)c1`, the activation was inactive: -3.34%.

Turning to `O=C(NCC1(N2CCCCC2)CCCCC1)c1ccc(F)cc1`, the activation is inactive: -3.36%.

For `CCCCOc1ccc(C(=O)NCC2(N3CCOCC3)CCCCC2)cc1`, the activation is inactive: 9.01%.

Take `O=P1(N(CCCl)CCCl)SCCCS1`: the activation is inactive: -4.61%.

For `CCN1CCC(Nc2cccc(F)c2)CC1`, the activation is inactive: 3.37%.

As to `Cc1ccccc1NC1(C#N)CCN(Cc2ccccc2)CC1`, the activation was inactive: 12.4%.

For the compound `Cn1c(=O)[nH]cc(N(CCCl)CCCl)c1=O`, the activation was inactive: -7.8%.

For `CN(C)c1ccc(C(=O)NCC2(N3CCCCC3)CCCCC2)cc1`, the activation was inactive: 12.8%.

On to `O=C(NCC1(N2CCCCC2)CCCCC1)c1ccco1`, for which the activation was inactive: 11%.

Take `CC(=O)N(c1ccccc1)C1CCNCC1`: the activation was inactive: -2.3%.

Consider `Cc1ccc(NC2(C#N)CCN(Cc3ccccc3)CC2)cc1`, for which the activation was inactive: 1.33%.

For `Fc1ccccc1NC1CCN(Cc2ccccc2)CC1`, the activation is inactive: 7.7%.

Regarding `Cc1ccc(C(=O)NCC2(N3CCCCC3)CCCCC2)o1`, the activation is inactive: -1.55%.

Turning to `CCC(CO)(C(=O)OC1CN2CCC1CC2)c1ccccc1` (configuration not stated), the activation was inactive: 1.98%.

As to `COc1cccc(C(=O)N(c2cc(C)cc(C)c2)C2CCN(C(=O)OC(C)(C)C)CC2)c1`, the activation was inactive: -0.872%.

As to `COc1cc(OC)cc(C(=O)NCC2(N3CCOCC3)CCCCC2)c1`, the activation is inactive: 0.148%.

`CCOc1ncccc1C(=O)NCC1(N2CCOCC2)CCCCC1`: the activation was inactive: -4.66%.

With `CCCOc1ccc(C(=O)NCC2(N(C)C)CCCCC2)cc1`, the activation was inactive: -7.76%.

In the case of `O=C(O)C1(Nc2ccccc2)CCN(Cc2ccccc2)CC1`, the activation is inactive: -7.15%.

With `CC(C)(C)OC(=O)N1CCC(Nc2ccccc2)CC1`, the activation was inactive: 8.22%.

Turning to `N/C(=N\O)c1c(N)no[n+]1[O-]`, the activation is inactive: -4.52%.

As for `O=C(OC1CN2CCC1CC2)C1c2ccccc2C=Cc2ccccc21` (configuration not stated), the activation was inactive: -1.56%.

With `O=C(NCC1(N2CCOCC2)CCCCC1)c1cc(Br)ccc1Cl`, the activation is inactive: 8.86%.

In the case of `COc1cc(C(=O)NCC2(N3CCOCC3)CCCCC2)cc(OC)c1C`, the activation is inactive: 8.85%.

Regarding `COc1ccc(C(=O)NCC2(N3CCOCC3)CCCCC2)cc1OC`, the activation was inactive: 9.63%.

Regarding `CCCN1CCC(Nc2cc(OC)cc(OC)c2)CC1`, the activation is inactive: -4.33%.

In the case of `c1ccc(CN2CCC(Nc3ccccc3)CC2)cc1`, the activation is inactive: -1.47%.

With `CN(C)C1(CNC(=O)c2cccc(C#N)c2)CCCCC1`, the activation is inactive: 0.535%.

Regarding `CC(C)(C)OC(=O)N1CCC(N(C(=O)c2ccccc2)c2ccc(Cl)cc2)CC1`, the activation was inactive: -4.03%.

Consider `N#Cc1ccc(C(=O)NCC2(N3CCCCC3)CCCCC2)cc1`, for which the activation was inactive: 2.9%.
